Measured values taken from ChEMBL document CHEMBL1141563, “Novel inhibitors of the Gardos channel for the treatment of sickle cell disease” (J Med Chem, 2008).

Chains of the proteins cited; added tags and fusions are not shown.
UniProt O15554, whole entry: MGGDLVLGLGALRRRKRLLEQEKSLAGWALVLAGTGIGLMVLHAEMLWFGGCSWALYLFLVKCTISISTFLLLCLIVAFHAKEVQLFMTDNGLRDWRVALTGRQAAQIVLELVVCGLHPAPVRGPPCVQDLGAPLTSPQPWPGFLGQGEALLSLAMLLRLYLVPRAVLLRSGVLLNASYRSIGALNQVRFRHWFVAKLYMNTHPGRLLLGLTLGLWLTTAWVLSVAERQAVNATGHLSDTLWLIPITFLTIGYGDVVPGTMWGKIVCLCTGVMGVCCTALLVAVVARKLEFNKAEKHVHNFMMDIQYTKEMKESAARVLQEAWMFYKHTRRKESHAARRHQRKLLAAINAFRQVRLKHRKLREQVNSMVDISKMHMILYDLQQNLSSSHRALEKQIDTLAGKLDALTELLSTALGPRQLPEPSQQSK

Molecular target: Intermediate conductance calcium-activated potassium channel protein 4 (Homo sapiens, UniProt O15554)
Experiment: Inhibition of Gardos channel in human RBC assessed as inhibition of ionomycin-stimulated [86Rb] efflux

IC50: 12 nM
SMILES: NC(=O)C(c1ccccc1)(c1ccc(F)cc1)c1ccc(F)cc1 [SENICAPOC]
